Values quoted from earlier work in US20240076624A1 (published 2024).

Target: T1, ALK5 (TGF-βR1) (Homo sapiens, UniProt P36897)
T1 sequence (P36897 34-503): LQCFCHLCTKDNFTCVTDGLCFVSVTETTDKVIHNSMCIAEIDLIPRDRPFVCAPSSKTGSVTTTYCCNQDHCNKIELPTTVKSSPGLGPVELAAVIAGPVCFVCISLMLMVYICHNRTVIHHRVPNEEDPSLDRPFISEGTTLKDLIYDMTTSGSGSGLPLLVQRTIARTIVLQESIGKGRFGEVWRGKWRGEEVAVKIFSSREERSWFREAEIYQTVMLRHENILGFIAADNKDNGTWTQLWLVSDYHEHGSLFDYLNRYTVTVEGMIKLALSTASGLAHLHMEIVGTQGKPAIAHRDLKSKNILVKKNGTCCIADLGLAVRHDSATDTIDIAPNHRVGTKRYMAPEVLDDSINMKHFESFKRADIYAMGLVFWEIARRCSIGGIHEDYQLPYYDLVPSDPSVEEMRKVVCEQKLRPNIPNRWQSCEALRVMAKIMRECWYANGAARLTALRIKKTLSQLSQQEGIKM
Settings: high concentrations; p38 MAP kinase inhibitor; cited from earlier work

## C[S+]([O-])c1ccc(-c2nc(-c3ccc(F)cc3)c(-c3ccncc3)[nH]2)cc1 (stereo not shown) [SB-203580]
  concentration at which it is thought to inhibit ALK5: ≥ 10 µM
